Assay [1] deals with Sarcoplasmic/endoplasmic reticulum calcium ATPase 2 (Rattus norvegicus) (UniProt P11507). Kind of assay: Enhancement of SERCA2a activity in STZ-induced diabetic rat model V-clamped myocytes assessed as effect on calcium transient amplitude at 1 uM by patch clamp method. Type of assay: cell-based. Particulars: Cardiomyocyte, filed as activator. (In general: In patch-clamp work, channel activity is measured electrically.)

Chains of the proteins cited; added tags and fusions are not shown. Lines headed by an entry give the natural chain unless they say otherwise; changes in a name come on top.
UniProt P11507: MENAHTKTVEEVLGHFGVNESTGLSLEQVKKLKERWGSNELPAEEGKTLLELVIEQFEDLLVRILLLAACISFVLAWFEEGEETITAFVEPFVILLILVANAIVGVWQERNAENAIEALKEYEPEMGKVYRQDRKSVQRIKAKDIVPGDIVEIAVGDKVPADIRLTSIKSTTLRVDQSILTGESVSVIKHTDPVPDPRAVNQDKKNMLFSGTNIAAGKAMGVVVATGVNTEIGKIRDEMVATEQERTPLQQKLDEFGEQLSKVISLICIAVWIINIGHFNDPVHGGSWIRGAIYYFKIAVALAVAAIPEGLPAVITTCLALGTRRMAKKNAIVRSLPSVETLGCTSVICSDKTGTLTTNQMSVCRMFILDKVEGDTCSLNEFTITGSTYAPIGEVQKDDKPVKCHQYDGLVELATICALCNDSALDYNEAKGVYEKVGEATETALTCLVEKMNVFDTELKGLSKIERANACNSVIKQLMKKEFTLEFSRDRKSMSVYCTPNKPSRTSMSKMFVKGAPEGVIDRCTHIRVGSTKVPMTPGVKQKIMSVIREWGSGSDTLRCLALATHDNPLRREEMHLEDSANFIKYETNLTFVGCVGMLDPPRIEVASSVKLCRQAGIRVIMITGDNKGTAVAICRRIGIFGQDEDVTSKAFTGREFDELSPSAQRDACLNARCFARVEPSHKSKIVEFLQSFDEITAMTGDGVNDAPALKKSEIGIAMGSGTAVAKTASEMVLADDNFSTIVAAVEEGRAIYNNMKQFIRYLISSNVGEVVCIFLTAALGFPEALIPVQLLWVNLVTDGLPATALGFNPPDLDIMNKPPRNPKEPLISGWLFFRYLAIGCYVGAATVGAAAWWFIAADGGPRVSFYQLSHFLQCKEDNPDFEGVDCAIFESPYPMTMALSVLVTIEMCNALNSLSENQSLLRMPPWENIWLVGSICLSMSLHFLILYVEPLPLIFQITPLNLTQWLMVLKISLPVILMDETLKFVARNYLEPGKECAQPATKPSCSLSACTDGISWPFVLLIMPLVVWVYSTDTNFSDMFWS

The target is the same in assay [2]. Kind of assay: Reversal of STZ-induced SERCA2a depression in STZ-induced diabetic rat model cardiac preparation assessed as increase in Vmax at 300 nM. Particulars: Heart. Type of assay: tissue-based.
The target is the same in assay [3]. Kind of assay: Enhancement of SERCA2a activity in STZ-induced diabetic rat model V-clamped myocytes assessed as acceleration of calcium transient decay at 1 uM by patch clamp method. Particulars: Cardiomyocyte, filed as activator. It is filed as cell-based.
The target is the same in assay [4]. Kind of assay: Enhancement of SERCA2a activity in STZ-induced diabetic rat model V-clamped myocytes assessed as increased excitation release at 1 uM by patch clamp method. Type of assay: cell-based. Particulars: Cardiomyocyte, filed as activator.
For assay [5] the target is unchanged. Kind of assay: Reversal of STZ-induced SERCA2a depression in STZ-induced diabetic rat model cardiac preparation assessed as increase in Vmax at 500 nM. Particulars: Heart. Type of assay: tissue-based.

Active and inactive are the calls of the source. No cut-off for these calls is given here.

For the molecule `C[C@]12CC[C@H](CCCC(=O)O)C[C@@H]1[C@@H](O)C[C@@H]1[C@@H]2CC[C@]2(C)C(=O)CC[C@@H]12`, the result in assay [1], in assay [3] and in assay [4] was Active. Further, the values for the Activity in assay [2] and in assay [5] were 26% and 17%, respectively.
For `C[C@]12CC[C@H](CC(=O)O)C[C@@H]1[C@@H](O)C[C@@H]1[C@@H]2CC[C@]2(C)C(=O)CC[C@@H]12`, the Activity was 25% in assay [2] and 28% in assay [5].

These data come from ChEMBL document CHEMBL5154915 (J Med Chem, 2022).
